Reference: PubChem BioAssay AID904 (National Center for Advancing Translational Sciences (NCATS), 2007)
The list shows a part of the results, in another mix than the full data. Results filed as inconclusive are left out. Activity calls are given as the source filed them. Calls follow the shape of the dose curve; as a rule, active = well fitted cell-killing curve with a large enough effect; inconclusive = small, poorly fitted or top-dose-only effect; inactive = no such curve, though single readings can be large or run the other way.

Experiment: qHTS Screen for Compounds that Selectively Target Cancer Cells with p53 Mutations: Cytotoxicity of p53 Null Cells at the Nonpermissive Temperature;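 also: 0% = DMSO only and -100% = full killing by 100 µM tamoxifen; nearly all actives have a fitted effect of over 50% in size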
Conditions: H1299 p53-null (neo) cells, 39C, ATPlite viability, 24 h; at 46.1 µM (top of the series) unless noted
Description: NIH Chemical Genomics Center [NCGC] NIH Molecular Libraries Screening Centers Network [MLSCN] MLSCN Grant: 1 X01 MH079844-01 Assay Submitter (PI): Dr. SUN, YI, University of Michigan NCGC Assay Overview: Synthetic Lethal Screen for Compounds to Kill Cancer Cells with p53 Mutation. Tumor suppressor gene p53 serves as a major cellular barrier against tumorigenesis. […] The goal of this screening is to identify small molecule probes that selectively kill cancer cells with mutations in p53. This screening was carried out using two lines of H1299 lung cancer cells. The H1299-p53 A138V line express a temperature sensitive p53 mutant (p53ts) in which the mutant p53 protein (A138V) is in the mutant confirmation when grown at 39C (the nonpermissive temperature) and in the wild type conformation when grown at 32C (the permissive temperature). A H1299-neo line (p53 null) grown at both 39C and 32C were used as counter-screens to filter out false positive associated with temperature shifting. The small molecular compounds that selectively target mutant p53-containing cancer cells were selected as candidate probes for further study. A cytotoxicity assay based on the measurement of ATP contents in cells was used in this screen. Concentration-responses of all the compounds in the library collection were determined in qHTS using the cell lines and temperature conditions as above.
NCGC Assay Protocol Summary: Both the H1299-p53A138V and H1299-neo cell lines were provided by Dr.Yi Sun, a PI at the University Michigan. The cells were maintained and cultured at 37C. The resuspended frozen cells were used to plate the cells in the 1536-well assay plates at a density of 600 cells per well in 5 ul medium. The assay plates with the cells were incubated at 37C for 16 to 30 hours before the experiments. The library compounds in DMSO solution were added to the cells in assay plates and incubated 24 hours at 39C (for mutant p53 conformation) or 32C (for normal p53 conformation as control). An ATP_lite assay kit (PerkinElmer) was used to determine the cell viability. Tomaxifen (100uM) was used as the positive control for cell killing. Data were normalized to the controls for basal activity (DMSO only) and 100% killing (100uM tamoxifen). AC50 values were determined from concentration-response data modeled with the standard Hill equation. P53 assay protocol: 1. Reagent; 5 uL H1299-p53A138V or H1299-neo cell cells/well 2. Time; overnight; 37C incubation 3. Compounds; 23 nL; 5.9 nM to 46 uM 4. Controls; 23 nL; Tamoxifen 100 uM 5. Time; 24 hr; 39C incubation 6. Reagent; 3 uL; ATP_Lite reagent 7. Time; 20 min; Room Temperature 8. Detection; Luminescence; Viewlux plate reader Keywords: p53, synthetic lethal, cancer, cell viability, cytotoxicity, H1299 cell line, luminescence, MLSMR, MLSCN, NIH Roadmap, qHTS, NCGC

Structure (SMILES) | activity, negative = cell killing
CN1CCCC(OC(=O)C(c2ccccc2)c2ccccc2)C1 (centres undefined) | inactive: -9.06%
Cc1cc(SC(NC(=O)c2ccc(F)cc2)C(Cl)(Cl)Cl)ncn1 (centres undefined) | inactive: -0.0252% [at 1.84 µM]
CCC(C)N(CC(C)C)C(=S)SC(NC(C)=O)C(Cl)(Cl)Cl (centres undefined) | inactive: -24.9%
Cc1c2c(nc3ccccc13)SC(C(Cl)Cl)C2 (centres undefined) | inactive: 24.2%
